Data from patent publication EP1029297B1.

Protein sequences, listed by entry. Tags and fused reporters are not part of them.
UniProt O70528, whole entry: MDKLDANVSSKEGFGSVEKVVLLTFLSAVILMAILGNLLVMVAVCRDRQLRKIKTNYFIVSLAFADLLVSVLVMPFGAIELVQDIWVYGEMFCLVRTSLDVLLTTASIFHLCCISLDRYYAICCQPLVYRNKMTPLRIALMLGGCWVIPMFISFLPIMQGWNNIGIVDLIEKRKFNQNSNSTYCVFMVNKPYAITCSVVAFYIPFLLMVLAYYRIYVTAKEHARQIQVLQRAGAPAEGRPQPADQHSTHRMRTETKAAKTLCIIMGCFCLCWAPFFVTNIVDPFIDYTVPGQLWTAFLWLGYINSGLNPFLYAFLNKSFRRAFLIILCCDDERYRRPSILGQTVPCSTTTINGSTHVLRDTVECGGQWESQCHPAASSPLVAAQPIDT

Target: 5HT4 receptor (Cavia porcellus, UniProt O70528)
Experiment: screening on the 5HT4 receptor target to determine binding ability
From the text: According to another example, analogs to the serotonine activity on the 5-HT4 receptor (ability of compounds to inhibit 5-HT4 induced contractions of guinea-pig ileum preparations) have been retrieved according to the general-diversity scoring function of the invention. More specifically, the application of the present method to the generation of analogs of a lead compound active against 5HT4 receptors has been tested.
These compounds have been screened on the 5HT4 receptor target to determine their binding ability, and thus verify the predictability of the present method. […]

O=C(OCCN1CCCCC1)c1c[nH]c2ccccc12
% INH (10 µM): 104%
IC50 (read-out: IC50 (NM), class symbol, affinity in the nanomolar range): 1 to 1000 nM
